Values quoted from earlier work as cited in article PMC8509707.
Where two headings read alike, the source gives them in different places.

Columns and labels:
PIRT (Homo sapiens) [1] = target: PIRT (Homo sapiens) (UniProt P0C851); conditions: cited from earlier work
PIRT (Homo sapiens) [2] = target: PIRT (Homo sapiens) (UniProt P0C851); conditions: cited from earlier work; remark: listed apart in the source

## Calmodulin (from UniProt P0DP23)
PIRT (Homo sapiens) [1]
  Kd: 60 µM
PIRT (Homo sapiens) [2]
  Kd: 0.35 µM
